Screening data: PubChem, National Center for Advancing Translational Sciences (NCATS)
ClpP mod – qHTS Assay for Activators of ClpP; ATP-dependent Clp protease proteolytic subunit (Bacillus subtilis (strain 168)), P80244; Potency, µM (doses to about 57.5 µM); 340,000 compounds, 1.9% hits; AID 651965, 2013; purified B. subtilis ClpP, FRET peptide cleavage, 20 min; active = well fitted falling curve with a large enough effect; inconclusive = small, poorly fitted or top-dose-only effect; inactive = no such curve, though single readings can be large or run the other way; also: the source files actives as falling curves though it sought activators and does not explain the sign; nearly all actives have a fitted effect of over 65% in size
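Buffer: 100 mM Tris/HCl pH8, 100 mM KCl, 0.05% low protease BSA, 2.5% glycerol, 0.01% Tween-20. ClpP 10 microg/mL final; 20 min RT; delta FRET normalized to ADEP and DMSO controls.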
miR-21 reporter – raises the signal of a miR-21 reporter; AID 2288; 340,000 tested, under 10 active; Potency, µM (doses to about 38.3 µM); HeLa miR-21 FLuc reporter, luciferase, 48 h; active = well fitted rising curve with a large enough effect; inconclusive = small, poorly fitted or top-dose-only effect; inactive = no such curve, though single readings can be large or run the other way;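 note: miR-21 action dims this reporter so a rising signal means less miR-21 action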
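HeLa miR-21-FLuc reporter line, endogenous miR-21; 2000 cells/well in DMEM/10% FBS; compound titration up to ~40uM final, 48 h, 37 degree Celsius; luciferase detection reagent, 15 min lysis, CCD luminescence.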
A549 viability – counter-screen for Nrf2 inhibitors: cytotoxicity in A549 cells. A549 ARE-Fluc cells, CellTiter-Fluor viability, 18-24 h. 390,000 compounds, 0.16% hits. Potency, µM (titrated, usually from 46 µM), actives largely listed as inhibitors
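A549 ARE-Fluc cells in 5% FBS OPTI-MEM, 5000 cells/well, rested 2 h then exposed to compounds in concentration-response for 18-24 h at 37 °C. Viability by CellTiter-Fluor fluorescence (Ex 405/Em 525) after 30 min; luciferase luminescence (BugLite, 15 min, RT) read afterwards.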
TCR act – T cell receptor activation | primary human leukocytes, anti-CD3, IL-2 HTRF, 48 h | Potency, µM (doses to about 9.22 µM), actives largely listed as activators | 330,000 tested, under 10 active | AID 504894
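Human primary leukocytes + a-CD3 beads + cpd, 48 hr; IL-2 in supernatant by HTRF (ex 320nm / em 665nm). No co-stimulatory signal supplied.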
Nrf2 block – Nrf2 pathway inhibition | A549 ARE-Fluc reporter, luciferase luminescence, 18-24 h | Potency, µM (top dose mostly 46 µM), hits mostly inhibitors | 360,000 compounds, 2.1% hits; also: nearly all actives have a fitted effect of over 60% in size
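Nrf2 function is reported as luminescence of an ARE-controlled luciferase in A549 cells. Compounds were tested at several concentrations, and a CellTiter-Fluor read on the same wells flagged cytotoxicity.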
Nrf2 activator – activates Nrf2 signaling; 410,000 compounds, 0.31% hits; AREc32 ARE-luciferase reporter (MCF7-derived line), luminescence, 24 h; Potency, µM (series often up to 46.1 µM), actives largely listed as activators; also: nearly all actives have a fitted effect of over 65% in size
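Quantitative high-throughput format: AREc32 reporter cells, 1000 per well, received compound by pin transfer and were incubated 24 hr at 37 deg C, 5% CO2, before Steady-Glo luminescence detection.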
Of the large screens only hits and unclear results are named; the others gave an inactive call. The list is not random: actives were taken first. Their share in the collection is about 3.7%. Unless noted, calls follow the shape of the dose curve; as a rule, active = well fitted curve in the direction sought with a large enough effect; inconclusive = small, poorly fitted or top-dose-only effect, or another doubt; inactive = no such curve, though single readings can be large; an effect the other way counts as inactive or inconclusive.

Cc1cc(C)c(NC(=O)CSc2nnnn2-c2cccnc2)c(C)c1	none (no result: ClpP mod)
COc1ccc(-n2nnnc2SCC(=O)Nc2ccccc2N2CCOCC2)cc1OC	none
O=C(CSc1nnnn1-c1cccnc1)Nc1ccccc1F	ClpP mod 28µM
CC(=O)c1cccc(-n2nnnc2SCC(=O)Nc2ccccc2N2CCCCC2)c1	Nrf2 block 23µM
Cc1ccccc1C(=O)NCC(=O)OC(C(=O)Nc1cc(C(F)(F)F)ccc1Cl)c1ccccc1 (stereo unspecified)	none (no result: ClpP mod, miR-21 reporter, TCR act, Nrf2 activator)
CN(C)c1ccc(/C=N/NC(=O)CCC(=O)NCc2ccccc2)cc1	ClpP mod 10µM
CCCCCC(=O)N/N=C/c1ccc(N(C)C)cc1	ClpP mod 28µM, Nrf2 block inconclusive
CN(C)c1ccc(/C=N/NC(=S)NCc2ccco2)cc1	ClpP mod 25µM
S=C(NCc1ccco1)N/N=C/c1ccncc1	none (no result: ClpP mod)
COc1cc(C=C(C#N)c2ccc([N+](=O)[O-])cc2)ccc1O	none (no result: miR-21 reporter, A549 viability, TCR act, Nrf2 block)
Cc1cc(NC(=O)c2csc([C@@H]3O[C@H](CO)[C@H](O)[C@H](O)[C@H]3O)n2)n(C)n1	none (no result: miR-21 reporter, A549 viability, TCR act, Nrf2 block)
COc1ccc(-n2nc3ccc(NC(=O)c4cc5ccccc5o4)cc3n2)cc1Cl	none (no result: TCR act)
COc1cc(C=CC(=O)c2cc(OC)c(OC)c(OC)c2)cc(OC)c1OC	A549 viability inconclusive, Nrf2 block 23µM (no result: miR-21 reporter)
COc1ccc(/C=C/C(=O)Nc2nc(C)cc(C)n2)cc1OC	ClpP mod 35µM
COc1ccc(/C=C/C(=O)Nc2ccncc2)cc1OC	none (no result: ClpP mod)
COc1cc(OC)c(C(=O)C=Cc2ccc(OC)c(OC)c2)c(OC)c1	Nrf2 block inconclusive, Nrf2 activator 11µM (no result: ClpP mod, miR-21 reporter)
COC(=O)c1cc(Cl)c(NC(=O)/C=C/c2ccc(OC)c(OC)c2)cc1OC	ClpP mod 28µM, Nrf2 block inconclusive (no result: TCR act)
CN1CCN(CCCNC(=O)c2ccc3c(Cl)c4c(nc3c2)CCCC4)CC1	none
Cc1cc2c(s1)c1cnn(Cc3ccc(Cl)c(F)c3)c(=O)c1n2C	none (no result: ClpP mod, miR-21 reporter, TCR act, Nrf2 activator)
COc1ccc(N2CC(NC(=O)/C=C\c3ccc(OC)c(OC)c3)CC2=O)cc1 (stereo unspecified)	ClpP mod 32µM (no result: TCR act, Nrf2 block)
CCOC(=O)COc1ccccc1C1Nc2ccccc2C(=O)N1c1cccc(Cl)c1 (stereo unspecified)	ClpP mod 25µM
CCOC(=O)COc1c(OC)cc(Cl)cc1C1Nc2ccccc2C(=O)N1c1ccc(F)cc1 (stereo unspecified)	ClpP mod 32µM
CCOc1cc(C2Nc3ccccc3C(=O)N2c2ccccc2)c(Br)cc1OCC(=O)O (stereo unspecified)	ClpP mod inconclusive
COc1cc(C2Nc3ccccc3C(=O)N2c2ccc(Cl)cc2)c(Cl)cc1OCC(=O)O (stereo unspecified)	ClpP mod 28µM, Nrf2 block inconclusive
CCOC(=O)COc1c(OC)cc(Cl)cc1C1Nc2ccccc2C(=O)N1c1cccc(C)c1 (stereo unspecified)	ClpP mod 28µM (no result: TCR act)
O=C(COc1ccc(Cl)cc1Cl)N1CCNC1=O	none (no result: miR-21 reporter)
COC(=O)[C@]12CCCCC=C1N(Cc1ccc3c(c1)OCO3)C(=O)[C@H](CC(=O)NCCCCc1ccccc1)C2	none (no result: miR-21 reporter, A549 viability, TCR act, Nrf2 block, Nrf2 activator)
O=[S+]([O-])(c1ccc2c(c1)OCCO2)N1CCN([S+](=O)([O-])c2cc(Cl)ccc2F)CC1	none (no result: ClpP mod, miR-21 reporter, TCR act, Nrf2 activator)
CCOC(=O)COc1c(OC)cc(Cl)cc1C1Nc2ccccc2C(=O)N1c1ccccc1 (stereo unspecified)	ClpP mod 28µM, Nrf2 block inconclusive
CCOc1ccc(CCNC(=O)CN2C(=O)NC3(CCCCCC3)C2=O)cc1OCC	none (no result: miR-21 reporter, TCR act)
CCn1c(SCc2ccc(OC)c(F)c2)nc2ccccc2c1=O	none (no result: ClpP mod)
COCC(C)n1c(SCc2ccc(OC)c(F)c2)nc2ccccc2c1=O (stereo unspecified)	Nrf2 block 23µM (no result: ClpP mod)
COCC(C)n1c(SCc2nc3ccccc3c(=O)[nH]2)nc2ccccc2c1=O (stereo unspecified)	ClpP mod 20µM
CC(C)CCNC(=O)C1CCC(Cn2c(=O)c3sccc3n(CC(=O)NC(C)C)c2=O)CC1 (stereo unspecified)	Nrf2 block inconclusive (no result: TCR act)
C=CCNC(=O)/C(C#N)=C/c1c(N(Cc2ccccc2)Cc2ccccc2)nc2ccccn2c1=O	miR-21 reporter inconclusive, A549 viability inconclusive, Nrf2 block 26µM
N#C/C(=C\c1c(N(Cc2ccccc2)Cc2ccccc2)nc2ccccn2c1=O)C(N)=O	none
O=C(CSc1nnc(CNC(=O)c2cccc(F)c2)n1-c1ccccc1)Nc1ccccc1F	none (no result: TCR act)
O=C(Nc1c(O)c2ccccc2[nH]c1=O)c1ccco1	Nrf2 activator 10µM
COc1ccc(OC)c(NS(=O)(=O)c2ccc(N3CCCCS3(=O)=O)cc2)c1	none (no result: TCR act, Nrf2 block)
C/C(=N\OCC(=O)Nc1ccccc1Br)c1cccs1	Nrf2 activator 22µM
C/C(=N/OCC(=O)Nc1ccccc1)c1cccs1	none (no result: Nrf2 block)
O=C(Cn1c(=O)n(Cc2ccco2)c(=O)c2oc3ccccc3c21)Nc1ccc(F)cc1F	ClpP mod inconclusive, Nrf2 block inconclusive (no result: TCR act)
CN1C(=S)SC(N2OC3C(=O)N(c4ccccc4)C(=O)C3C2c2ccc(Cl)cc2)C1(C)C (stereo unspecified)	ClpP mod 28µM
COc1cc(C2C3C(=O)N(c4ccccc4)C(=O)C3ON2c2ccccc2)cc(OC)c1OC (stereo unspecified)	none (no result: Nrf2 block)
CCOC(=O)C1CCCN(S(=O)(=O)c2cc(-c3onc(C)c3C)ccc2OC)C1 (stereo unspecified)	none (no result: TCR act)
C[C@@]12CCC=C[C@H]1[C@H](c1ccc(F)c(/C=C/c3ccccc3)c1)N(Cc1ccccc1)C2=O	ClpP mod 28µM
CC12CCC=CC1C(c1ccc(/C=C/c3ccccc3)cc1F)N(Cc1ccccc1)C2=O (stereo unspecified)	Nrf2 block inconclusive (no result: ClpP mod, miR-21 reporter, TCR act, Nrf2 activator)
COc1ccc(-c2ccc([C@H]3[C@@H]4C=CCC[C@@]4(C)C(=O)N3Cc3ccccc3)c(F)c2)cc1OC	Nrf2 block 21µM
N#Cc1ccc(-c2cccnc2)nc1SCc1ccc(Cl)cc1Cl	ClpP mod inconclusive
N#Cc1ccc(-c2cccnc2)nc1SCc1ccc(Cl)c(Cl)c1	Nrf2 block 23µM
COC(=O)c1ccccc1NC(=O)C1CCN(c2ncnc3c2nc2n3CCCCC2)CC1	Nrf2 block inconclusive
CCCCCn1c(NC(=O)c2ccco2)c(S(=O)(=O)c2ccc(C)cc2)c2nc3ccccc3nc21	ClpP mod inconclusive, Nrf2 block inconclusive
